We go through 1 molecule from patent US4051241A.

SMILES strings stand for the structures. Where “and” joins values, the source holds several entries; their conditions need not be identical. Equal values may be shown once. Read-outs that look alike come from different tables or passages of the source.

Series [1] deals with HPA axis. As to conditions: 25.0 mg per day, oral, 6 A.M., 7 days.
The subject of series [2] is HPA axis. The conditions noted are these: 25.0 mg per day, oral, 6 A.M., 7 days. The source holds these as a separate data set.
A short description of series [3]: Metabolic effects: loss of urinary nitrogen and calcium. As to conditions: Table IVA, daily oral, 20 mg printed in table (40 mg in text), subjects 1, 2; listed as 11β,17α,21-trihydroxypregna-1,4-diene-3,20-dione.
[4] abbreviates: listed as 11β,17α21-trihydroxypregna-1,4-diene-3,20-dione.

For `C[C@]12C=CC(=O)C=C1CC[C@@H]1[C@@H]2[C@@H](O)C[C@@]2(C)[C@H]1CC[C@]2(O)C(=O)CO` [Prednisolone], the “Normal/Total IHT Response” value in the series on HPA axis [1] (setting [4]) is given as 2/3; in the series with HPA axis [1] (listed as 11β,17α,21-trihydroxy-1,4-pregnadine-3,20-dione), “only two”. Besides, the “Normal/Total A.M. Plasma Cortisol” value is recorded as 0/3 with HPA axis [2] (setting [4]) and “none” with HPA axis [2] (listed as 11β,17α,21-trihydroxypregna-1,4-diene-3,20-dione). Besides, in series [3], the “Mean Urinary Calcium, Treatment Period Days 10-15” value was 273 milligrams per 24 hours and 274 milligrams per 24 hours. For the same molecule, the “Mean Urinary Nitrogen, Treatment Period Days 10-15” value in series [3] is 9.6 grams per 24 hours and 9.4 grams per 24 hours.
